Test results taken from PMC4306950 (Marine Drugs, 2015).

The chains behind the UniProt entries cited, without tags or fusion partners.
UniProt P16388, whole entry: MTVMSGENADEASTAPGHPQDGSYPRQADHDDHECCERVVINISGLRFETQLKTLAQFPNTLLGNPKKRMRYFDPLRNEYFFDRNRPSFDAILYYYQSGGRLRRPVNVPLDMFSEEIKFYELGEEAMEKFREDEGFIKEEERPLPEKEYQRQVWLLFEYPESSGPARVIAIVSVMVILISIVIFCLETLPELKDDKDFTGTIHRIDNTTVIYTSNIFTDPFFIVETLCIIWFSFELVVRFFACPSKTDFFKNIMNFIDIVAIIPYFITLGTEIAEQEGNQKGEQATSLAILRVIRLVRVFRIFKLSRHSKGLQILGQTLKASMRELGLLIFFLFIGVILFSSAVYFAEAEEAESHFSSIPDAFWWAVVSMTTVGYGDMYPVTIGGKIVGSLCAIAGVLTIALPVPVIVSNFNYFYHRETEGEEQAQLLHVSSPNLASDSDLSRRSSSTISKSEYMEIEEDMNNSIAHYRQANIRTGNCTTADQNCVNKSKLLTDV
UniProt P16390, whole entry: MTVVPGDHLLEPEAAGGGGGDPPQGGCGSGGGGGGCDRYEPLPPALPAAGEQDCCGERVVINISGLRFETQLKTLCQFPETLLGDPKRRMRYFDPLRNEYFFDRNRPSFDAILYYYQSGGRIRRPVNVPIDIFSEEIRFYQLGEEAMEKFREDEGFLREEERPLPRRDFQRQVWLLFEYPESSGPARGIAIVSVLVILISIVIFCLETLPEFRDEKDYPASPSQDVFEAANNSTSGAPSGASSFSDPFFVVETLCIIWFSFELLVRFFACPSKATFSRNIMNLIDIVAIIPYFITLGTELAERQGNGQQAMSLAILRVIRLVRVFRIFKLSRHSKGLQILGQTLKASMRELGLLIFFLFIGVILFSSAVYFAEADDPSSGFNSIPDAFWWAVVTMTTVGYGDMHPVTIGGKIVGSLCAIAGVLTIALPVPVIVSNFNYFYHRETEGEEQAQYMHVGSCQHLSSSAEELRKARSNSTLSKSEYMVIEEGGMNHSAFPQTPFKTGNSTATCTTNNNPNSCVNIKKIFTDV
UniProt P22459, whole entry: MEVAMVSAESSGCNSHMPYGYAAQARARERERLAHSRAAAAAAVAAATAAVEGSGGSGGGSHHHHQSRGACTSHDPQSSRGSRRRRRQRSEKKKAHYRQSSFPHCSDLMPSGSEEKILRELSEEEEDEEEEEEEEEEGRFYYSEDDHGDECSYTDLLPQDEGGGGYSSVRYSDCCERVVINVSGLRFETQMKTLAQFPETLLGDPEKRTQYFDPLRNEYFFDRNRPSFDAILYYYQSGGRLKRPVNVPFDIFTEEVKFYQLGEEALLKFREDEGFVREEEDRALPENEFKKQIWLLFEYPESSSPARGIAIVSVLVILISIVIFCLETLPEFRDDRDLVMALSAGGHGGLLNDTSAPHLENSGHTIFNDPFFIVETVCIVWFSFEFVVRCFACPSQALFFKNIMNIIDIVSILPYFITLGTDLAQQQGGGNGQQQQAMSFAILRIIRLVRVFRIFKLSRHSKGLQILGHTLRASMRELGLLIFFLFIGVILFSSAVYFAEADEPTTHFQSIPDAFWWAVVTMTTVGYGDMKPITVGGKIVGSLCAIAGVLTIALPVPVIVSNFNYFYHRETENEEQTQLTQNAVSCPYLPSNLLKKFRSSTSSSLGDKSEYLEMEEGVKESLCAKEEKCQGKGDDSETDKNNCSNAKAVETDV
UniProt P17658, whole entry: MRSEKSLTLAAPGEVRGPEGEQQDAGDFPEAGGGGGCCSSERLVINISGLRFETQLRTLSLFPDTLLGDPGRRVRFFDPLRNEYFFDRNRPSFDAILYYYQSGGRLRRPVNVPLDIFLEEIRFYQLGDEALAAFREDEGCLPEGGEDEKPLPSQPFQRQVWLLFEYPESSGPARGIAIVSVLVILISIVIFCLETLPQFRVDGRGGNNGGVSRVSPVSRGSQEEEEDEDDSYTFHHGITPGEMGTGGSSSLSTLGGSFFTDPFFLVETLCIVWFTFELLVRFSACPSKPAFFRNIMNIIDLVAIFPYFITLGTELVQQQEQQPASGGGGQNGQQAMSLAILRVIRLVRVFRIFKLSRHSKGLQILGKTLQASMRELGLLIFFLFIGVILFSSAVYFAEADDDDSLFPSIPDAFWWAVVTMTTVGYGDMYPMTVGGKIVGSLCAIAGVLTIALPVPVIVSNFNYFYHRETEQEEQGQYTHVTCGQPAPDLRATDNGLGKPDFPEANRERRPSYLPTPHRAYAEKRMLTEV

Columns and labels:
Assay type in all cases: cell-based
[1] = target: T1, mKv1.1 channels stably expressed in mouse L929 fibroblasts (Mus musculus, UniProt P16388); assay: Whole-cell patch-clamp electrophysiology on Kv1.1; settings: for block of Kv1.1 at 100 nM: peptide 100 nM
T1 construct: expressed in transfected cells
Description: (§1) Mouse fibroblasts stably expressing homotetramers of Kv1.1 or Kv1.3 were patch-clamped in the whole-cell configuration and steady-state block was measured after addition of different concentrations of the peptides.
(§2) Chips averaged 2–3.5 MΩ and a holding potential of −80 mV was used for all recordings. Series resistance compensation of 80% was used when currents exceeded 2 nA. The external solution was normal Ringer solution containing (in mM): 160 NaCl, 4.5 KCl, 2 CaCl2, 1 MgCl2, 10 Hepes, pH 7.4, 310 mOsm. The internal solution contained (in mM): 145 KF, 10 HEPES, 10 EGTA (ethylene glycol tetraacetic acid), 2 MgCl2, pH 7.2, 300 mOsm. Currents were elicited by repeated 200 ms pulses to 40 mV applied at intervals of 30 s for Kv1.3 and 10 s for Kv1.1. IC50 values were determined by fitting the Hill equation to the reduction of area under the current curve measured at 40 mV in the presence of different concentrations of the peptides (GraphPad Prism software, La Jolla, CA, USA).

[2] = target: T2, mKv1.3 channels stably expressed in mouse L929 fibroblasts (Mus musculus, UniProt P16390); assay: Whole-cell patch-clamp electrophysiology on Kv1.3; settings: for IC50: whole-cell patch-clamp, mKv1.3 in L929 fibroblasts, 200 ms pulses to 40 mV every 30 s, holding -80 mV, Hill fit, n = 3 to 6 cells per concentration
T2 construct: expressed in transfected cells
Description: as §1, §2

[3] = target: T3, Kv1.4 (mouse LTK fibroblasts stably transfected with Kv1.4) (Homo sapiens, UniProt P22459); assay: Whole-cell patch-clamp electrophysiology on Kv1.4; settings: mouse LTK fibroblasts stably transfected with Kv1.4, peptide 100 nM
T3 construct: expressed in transfected cells

[4] = target: T4, hKv1.6 (HEK cells transiently transfected with hKv1.6:eGFP) (Homo sapiens, UniProt P17658); assay: Whole-cell patch-clamp electrophysiology on Kv1.6; settings: patched 19 h after transfection, peptide 100 nM
T4 construct: expressed in transfected cells; host or cells: HEK cells, transient, Lipofectamine 2000 (plasmid a gift from Dr. Heike Wulff)
Description: The HEK cells were patched 19 h after transfection.
as §2

SMILES | block of Kv1.1 at 100 nM [1] [% block at 100 nM] | effect on Kv1.1 currents at concentrations up to 100 nM [1] | IC50 [2] [pM] | block of Kv1.4 at 100 nM [3] [% block at 100 nM] | block of Kv1.6 at 100 nM [4] | loss of efficacy (potency) on Kv1.3 relative to ShK ([2]; from patch-clamp IC50 values) [fold]
CCCC[C@@H]1NC(=O)[C@H](CO)NC(=O)[C@H](Cc2c[nH]cn2)NC(=O)[C@H](CCCCN)NC(=O)[C@@H]2CSSC[C@@H]3NC(=O)[C@H]([C@@H](C)O)NC(=O)[C@H](CCCCN)NC(=O)[C@H](CCCNC(=N)N)NC(=O)[C@H](CSSC[C@H](NC(=O)[C@H](CCCNC(=N)N)NC(=O)[C@H](CO)NC(=O)[C@H](CCCCN)NC(=O)[C@@H]4CCCN4C(=O)[C@H]([C@@H](C)CC)NC(=O)[C@H]([C@@H](C)O)NC(=O)[C@H](CC(=O)O)NC(=O)[C@H]([C@@H](C)CC)NC(=O)[C@@H](NC(=O)[C@H](CO)NC(=O)[C@H](CCCNC(=N)N)NC(=O)COCCOCCNC(=O)[C@@H](N)Cc4ccc(P(=O)(O)O)cc4)CSSC[C@@H](C(N)=O)NC(=O)[C@H]([C@@H](C)O)NC(=O)CNC3=O)C(=O)N[C@@H]([C@@H](C)O)C(=O)N[C@@H](C)C(=O)N[C@@H](Cc3ccccc3)C(=O)N[C@@H](CCCCN)C(=O)N2)NC(=O)[C@H](Cc2ccccc2)NC(=O)[C@H](CO)NC(=O)[C@H](CC(C)C)NC(=O)[C@H](CCCNC(=N)N)NC(=O)[C@H](Cc2ccc(O)cc2)NC(=O)[C@H](CCCCN)NC1=O [ShK-223] | <10 | neither ShK-223 nor ShK-224 had any effect | 25 ± 14 | <5 | <10% block at 100 nM | –
CC[C@H](C)[C@@H]1NC(=O)[C@@H](NC(=O)[C@H](CO)NC(=O)[C@H](CCCNC(=N)N)NC(=O)COCCOCCNC(=O)[C@@H](N)Cc2ccc(P(=O)(O)O)cc2)CSSC[C@@H](C(N)=O)NC(=O)[C@H]([C@@H](C)O)NC(=O)CNC(=O)[C@@H]2CSSC[C@@H]3NC(=O)[C@H](CCCCN)NC(=O)[C@H](Cc4ccccc4)NC(=O)[C@H](C)NC(=O)[C@H]([C@@H](C)O)NC(=O)[C@H](CSSC[C@H](NC(=O)[C@H](Cc4ccccc4)NC(=O)[C@H](CO)NC(=O)[C@H](CC(C)C)NC(=O)[C@H](CCCNC(=N)N)NC(=O)[C@H](Cc4ccc(O)cc4)NC(=O)[C@H](CCCCN)NC(=O)[C@H](CCSC)NC(=O)[C@H](CO)NC(=O)[C@H](Cc4c[nH]cn4)NC(=O)[C@H](CCCCN)NC3=O)C(=O)N[C@@H](CCCNC(=N)N)C(=O)N[C@@H](CCCCN)C(=O)N[C@@H]([C@@H](C)O)C(=O)N2)NC(=O)[C@H](CCCNC(=N)N)NC(=O)[C@H](CO)NC(=O)[C@H](CCCCN)NC(=O)[C@@H]2CCCN2C(=O)[C@H]([C@@H](C)CC)NC(=O)[C@H]([C@@H](C)O)NC(=O)[C@H](CC(=O)O)NC1=O [ShK-224] | <10 | neither ShK-223 nor ShK-224 had any effect | 164 ± 59 | <20 | ~25% | 12
